Here are results for one protein from article PMC10871247 (bioRxiv, 2024).

The data set deals with the molecule itself. As to the kind of experiment: SEC.

B1: 3×Lys-MxEnc (natural protein, Myxococcus xanthus)
chain: MPDFLGHAENPLREEEWARLNETVIQVARRSLVGRRILDIYGPLGAGVQTVPYDEFQGVSPGAVDIVGEQETAMVFTDARKFKTIPIIYKDFLLHWRDIEAARTHNMPLDVSAAAGAAALCAQQEDELIFYGDARLGYEGLMTANGRLTVPLGDWTSPGGGFQAIVEATRKLNEQGHFGPYAVVLSPRLYSQLHRIYEKKKVLEIETIRQLASDGVYQSNRLRGESGVVVSTGRENMDLAVSMDMVAAYLGASRMNHPFRVLEALLLRIKHPDAICTLEGAGATERR
Regarding B1, the binding result is given as “binds”.
